# Experimental data: patent US20250041255A1, “COMPOSITIONS AND METHODS FOR TREATING AUTOIMMUNE SKIN DISEASES” (published 2025)
# Amino acid sequences for entries named in this document (tags omitted).
# UniProt Q16665, whole entry, looked up: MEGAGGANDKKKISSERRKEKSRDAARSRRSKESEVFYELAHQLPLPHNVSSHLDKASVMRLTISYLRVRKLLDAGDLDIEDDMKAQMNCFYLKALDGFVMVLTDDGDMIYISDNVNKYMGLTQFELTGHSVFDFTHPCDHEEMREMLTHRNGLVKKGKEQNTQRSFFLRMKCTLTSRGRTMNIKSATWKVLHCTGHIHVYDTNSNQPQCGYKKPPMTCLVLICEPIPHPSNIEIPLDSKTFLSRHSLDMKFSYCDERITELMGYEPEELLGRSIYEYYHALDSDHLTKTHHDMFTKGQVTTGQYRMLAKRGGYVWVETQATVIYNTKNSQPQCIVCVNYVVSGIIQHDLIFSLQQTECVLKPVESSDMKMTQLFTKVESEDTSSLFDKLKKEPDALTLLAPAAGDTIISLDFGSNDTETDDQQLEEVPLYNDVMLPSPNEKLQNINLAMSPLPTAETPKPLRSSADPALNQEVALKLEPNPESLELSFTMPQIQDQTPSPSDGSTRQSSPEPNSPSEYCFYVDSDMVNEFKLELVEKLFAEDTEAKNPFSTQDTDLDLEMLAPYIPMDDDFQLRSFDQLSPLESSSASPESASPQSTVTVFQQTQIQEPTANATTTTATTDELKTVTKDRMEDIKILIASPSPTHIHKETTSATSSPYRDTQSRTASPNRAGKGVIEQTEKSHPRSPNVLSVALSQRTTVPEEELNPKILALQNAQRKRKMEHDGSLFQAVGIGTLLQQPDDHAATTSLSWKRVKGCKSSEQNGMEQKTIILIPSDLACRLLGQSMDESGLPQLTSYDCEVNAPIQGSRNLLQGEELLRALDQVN
# Columns and labels:
# [1] = target: HIF-1α protein (Homo sapiens, UniProt Q16665); settings: cited from earlier work
# [2] = system: HIF-1β; settings: cited from earlier work
# [3] = system: CD4+ and CD8+ skin-infiltrating and splenic T cells; test: Single-cell RNA sequencing of skin and spleen cells of MRL/lpr mice after 5-day course of high dose PX-478; settings: for Th17 enrichment score: FIG. 4E
# [4] = system: MRL/lpr mice (murine CLE); test: Pharmacologic HIF-1 blockade, 4-week treatment of MRL/lpr mice: skin assessment, histopathologic scoring, Gzmb RNA in situ hybridization
# [5] = CD4+ and CD8+ skin-infiltrating T cells, 30 mg/kg daily for 5 days vs PBS, FIG. 4B
smiles,measurement,setting,value
NC(Cc1ccc([N+]([O-])(CCCl)CCCl)cc1)C(=O)O (stereo not drawn),hypoxia-induced increase in HIF-1α protein,[1],significantly decreases
same,effect on HIF-1β,[2],little or no effect
same,transcripts of Hif1a,[3]; [5],decreased
same,transcripts of Mxi1,[3]; [5],decreased
same,Hif1α Enrichment Score (GSEA),"[3]; CD4+ and CD8+ skin-infiltrating T cells, FIG. 4C",reduced
same,"Gzmb, Gzmk, and Fasl transcripts (cytotoxic potential)","[3]; CD8+ skin-infiltrating T cells, FIG. 4B",decreased
same,Th17 enrichment score,[3]; skin-infiltrating CD4+ T cells,decrease
same,cytotoxicity enrichment score,"[3]; skin-infiltrating CD8+ T cells, FIG. 4D",reduced
same,expression of exhaustion markers Pdcd1 and Tigit,"[3]; skin-infiltrating CD8+ T cells, FIG. 7F",reduced
same,transcripts of Hif1a and Mxi1,"[3]; splenic T cells, 30 mg/kg daily for 5 days vs PBS, FIG. 4B",but not splenic T cells
same,cytotoxic potential,"[3]; splenic T cells, FIG. 4B",but not splenic T cells
same,Th17 enrichment score,[3]; splenic T cells,not seen
same,histopathologic disease score of the interscapular skin,"[4]; 20-week-old MRL/lpr mice after 4 weeks of treatment, vs vehicle, FIG. 3B",reduced
same,clinical skin disease (dermatitis score),"[4]; 20-week-old MRL/lpr mice after 4 weeks oral gavage 5 mg/kg every 2 days, vs PBS vehicle, FIG. 3A",significantly reduced
same,proportion of cells expressing granzyme B in affected skin,"[4]; RNA in situ hybridization, percent Gzmb+ cells per high power field, 20-week-old MRL/lpr mice after 4 weeks of treatment, FIG. 3D",decreased
